Reference: PubChem BioAssay AID1662 (Broad Institute, 2009)
The list shows a part of the results, in another mix than the full data. Active and inactive are the calls of the source.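 The calls were made as follows: active = mean replicate score, as percent of positive control median, at least 50; inconclusive = mean below 50 but one replicate at or above 50; inactive = mean and every replicate below 50.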

Test: kanamycin survival loss of SKKanGAS strain – BacTiter-Glo luminescence, streptokinase expression inhibitor project, primary screen (AID 1662);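 also: strain carries kanamycin resistance gene driven by streptokinase promoter and grows in 40 µg/ml kanamycin; loss of luminescence reflects streptokinase promoter inhibition or plain growth inhibition; 0% = median of DMSO wells and 100% = positive control at its reference dose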
Conditions: S. pyogenes SKKanGAS, kanamycin growth, 6 h, at 7.5 µM, stronger effect = higher value
With `CC(=O)Nc1ccc(Oc2c([N+](=O)[O-])cc([N+](=O)[O-])cc2[N+](=O)[O-])cc1` the inhibition was inactive: 2.48%. With `C[C@@H]1C=CCP(=O)(Oc2ccccc2)O1` (some centres not stated) the inhibition was inactive: 0.469%. For `C[C@H]1OP(=O)(Oc2ccccc2)C[C@@H]2O[C@@H]21` (some centres not stated), the inhibition was inactive: -0.458%. In the case of `CC(=O)c1ccc(N2CC2c2ccncc2)cc1` (configuration not stated), the inhibition is reported as inactive: -2.98%. For `c1ccc(-c2nn[nH]n2)c(-c2nn[nH]n2)c1`, the inhibition was inactive: 6.44%. With `CCOC(=O)NC(Sc1ccccc1)C(Cl)(Cl)Cl` (configuration not stated) the inhibition was inactive: 8.79%. For `Cc1ccc(NP(=O)(Oc2cccc(C)c2)Oc2cccc(C)c2)nc1`, the inhibition was inactive: -1.18%. In the case of `CCNC(=S)/N=C(\N)N[N+](=O)[O-]`, the inhibition is reported as inactive: -4.7%. For `O=C(NC1CCS(=O)(=O)C1)NP(=S)(Oc1ccccc1)Oc1ccccc1` (configuration not stated), the inhibition was inactive: 11.5%. With `Cc1ccccc1OP(=O)(Nc1ccccn1)Oc1ccccc1C` the inhibition was inactive: -2.28%. In the case of `CN(C)C(=O)Oc1noc2ccccc12`, the inhibition is reported as inactive: -6.03%. In the case of `O=C(OC1CN2CCC1CC2)c1ccccc1` (configuration not stated), the inhibition is reported as inactive: -4.35%. For `CCC(=O)N1C2C3N(C(=O)CC)C1C1N(C(=O)CC)C(C(N1C(=O)CC)N3C(=O)CC)N2C(=O)CC`, the inhibition was inactive: -3.03%. In the case of `COC(=O)c1cc2c(s1)N=C(c1ccccc1)N(C)P2(=O)N1CCOCC1` (configuration not stated), the inhibition is reported as inactive: 1.52%. With `Cc1ccc(OP(=O)(Nc2ccccn2)Oc2ccc(C)cc2)cc1` the inhibition was inactive: 2.32%. With `CC(=O)NC(SC(=S)N(CC(C)C)CC(C)C)C(Cl)(Cl)Cl` (configuration not stated) the inhibition was inactive: 3.39%. In the case of `CCOP(=O)(Nc1ccccc1)OCC`, the inhibition is reported as inactive: -0.485%. With `Cc1cc(SC(NC(=O)c2ccc(F)cc2)C(Cl)(Cl)Cl)ncn1` (configuration not stated) the inhibition was inactive: 1.91%. With `Cc1ccc(NP(=O)(Oc2ccccc2F)Oc2ccccc2F)nc1` the inhibition was inactive: 14.3%. With `CN(C(=O)Cc1ccc(Cl)c(Cl)c1)[C@H]1CCCC[C@@H]1N1CCCC1` the inhibition was inactive: 0.808%. In the case of `O=P(Nc1nc2ccc(Cl)cc2s1)(c1ccccc1)c1ccccc1`, the inhibition is reported as active: 90.4%. In the case of `O=C(O)c1ccccc1[As](=O)(O)O`, the inhibition is reported as inactive: -3.11%. For `CC(=O)Nc1ccc([As](=O)(O)O)cc1`, the inhibition was inactive: -4.12%. In the case of `CC(=O)O[C@]1(C)C(=O)OC/C2=C/CN(C)CCC(OC(=O)[C@@](O)(C(C)O)C[C@H]1C)C2=O` (some centres not stated), the inhibition is reported as inactive: -0.161%. For `Nc1cccc2ccc([As](=O)(O)O)cc12`, the inhibition was inactive: 0.981%. For `CCN(N=Nc1nonc1N)c1nonc1N`, the inhibition was inactive: 4.98%. With `O=[N+]([O-])c1cc([N+](=O)[O-])c(CCN2CCOCC2)c([N+](=O)[O-])c1` the inhibition was inactive: 19.4%. For `Clc1ccc(Cl)c(NC2=NCC(CBr)S2)c1` (configuration not stated), the inhibition was inactive: 5.04%. With `CN1CCCC(OC(=O)C(c2ccccc2)c2ccccc2)C1` (configuration not stated) the inhibition was inactive: 6.59%. With `CC(C)[C@H]1C(=O)O[C@@H]2CCN3CC=C(COC(=O)[C@](C)(O)[C@]1(C)O)[C@H]23` the inhibition was inactive: 0.512%. For `COc1ccccc1OP(=O)(Nc1ccc(C)cn1)Oc1ccccc1OC`, the inhibition was inactive: -3.24%. With `Cc1ccc(OP(=O)(Nc2nccs2)Oc2ccc(C)cc2)cc1` the inhibition was inactive: 36.2%. For `Cc1ccc(N/C(=N/P(=O)(N2CCOCC2)N2CCOCC2)N2CCOCC2)cc1`, the inhibition was inactive: 2.4%. With `NC(=O)c1cc([N+](=O)[O-])cc([N+](=O)[O-])c1N` the inhibition was inactive: 1.38%. With `Oc1ccccc1CNc1ccccn1` the inhibition was inactive: -13.2%. For `Cc1c2non([O-])c-2c(C)[n+](=O)[n+]1[O-]`, the inhibition was inactive: 0.057%. For `O=C(NC(Sc1ccncn1)C(Cl)(Cl)Cl)c1ccccc1` (configuration not stated), the inhibition was inactive: -11.3%. In the case of `CC(C)CC(=O)NC(Sc1ccc(Cl)cc1)C(Cl)(Cl)Cl` (configuration not stated), the inhibition is reported as inactive: 34.5%. With `Nc1cc(N)c2nonc2c1[N+](=O)[O-]` the inhibition was inactive: -6.6%. In the case of `Cc1ccc(NP(=O)(Oc2ccccc2)Oc2ccccc2)nc1`, the inhibition is reported as inactive: 2%. In the case of `C=C1C/C(=C/C)C(=O)O[C@@H]2CCN3CC=C(COC(=O)[C@]1(C)O)[C@H]23`, the inhibition is reported as inactive: -0.262%. With `CCc1nc2c(n1)c1c(non1O)c1c2no[n+]1[O-]` the inhibition was inactive: 7.31%. For `O=[N+]([O-])c1cc([N+](=O)[O-])c(CCNc2ccccc2)c([N+](=O)[O-])c1`, the inhibition was inactive: 30.8%. For `O=[N+]([O-])c1cccc2n[nH]nc12`, the inhibition was inactive: 0.85%. For `CC(=O)N1C2C3N(C(C)=O)C1C1N(C(C)=O)C(C(N1C(C)=O)N3C(C)=O)N2C(C)=O`, the inhibition was inactive: -2.89%. In the case of `COc1ccc(C2=NCC(CBr)S2)cc1` (configuration not stated), the inhibition is reported as inactive: 1.38%. For `CC1CCN(C(=O)Oc2c(Cl)cc(Cl)c3cccnc23)CC1`, the inhibition was inactive: 45.3%. For `CC(C)=N/N=C(\N)N[N+](=O)[O-]`, the inhibition was inactive: -8.54%. In the case of `CN(C)C(=O)OCCc1n(C)cc[n+]1C`, the inhibition is reported as inactive: -1.38%. With `CCN(/C(=N/P(=O)(N1CCOCC1)N1CCOCC1)N1CCOCC1)c1ccc(OC)cc1` the inhibition was inactive: 9.27%. For `Nc1ccc([As](=O)(O)c2ccc(N)cc2)cc1`, the inhibition was inactive: -14.8%. In the case of `C[N+]1=C2C=CC=CC=C2SC12C([N+](=O)[O-])=CC([N+](=O)[O-])=C[C-]2[N+](=O)[O-]` (configuration not stated), the inhibition is reported as inactive: 9.47%. With `O=C(Nc1cc([As](=O)(O)O)ccc1O)c1ccccc1` the inhibition was inactive: 0.327%. For `O=C(O)CNc1ccc([As](=O)(O)O)cc1`, the inhibition was inactive: -0.953%. In the case of `O=[N+]([O-])c1cccc(NC2=NCC(CBr)S2)c1` (configuration not stated), the inhibition is reported as inactive: -2.03%. For `O=[N+]([O-])c1ncn(CCn2ncnc2[N+](=O)[O-])n1`, the inhibition was inactive: -6.29%. For `CC(C)(C)C(=O)NC(Sc1ccncn1)C(Cl)(Cl)Cl` (configuration not stated), the inhibition was inactive: -0.729%.
